# Antibody variant affinities, Ab-14 light chain, assay B

Values reported by Li et al. 2023, doi:10.1038/s41467-023-39022-2 (FLAb copy).

Target peptide (SARS-CoV-2 spike, HR2 region): PDVDLGDISGINAS

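This is the validation round: designs drawn from the data on random variants, tested in the same kind of assay. Group labels follow the data file (Ctrl: baseline library sampled from a position-specific scoring matrix, with some repeated check sequences; En: ensemble of fine-tuned language models; GP: Gaussian process model; HC: hill climbing; Gen: genetic algorithm; Gibbs: Gibbs sampling; a sequence that several methods proposed may carry one label only). The scFvs were displayed on barcoded MATa yeast, the peptide on MATalpha yeast. Pairs that bind mate more often; barcode pairs of the diploids are counted by sequencing. Scores were corrected for input abundance and mapped to Kd with protein pairs of known affinity run in the same pool. Each pool was mated in six replicate cultures.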

The variants keep the heavy chain, the linker and the frameworks of Ab-14 (scFv order VH, a (GGGGS)3 linker, VL).
VH: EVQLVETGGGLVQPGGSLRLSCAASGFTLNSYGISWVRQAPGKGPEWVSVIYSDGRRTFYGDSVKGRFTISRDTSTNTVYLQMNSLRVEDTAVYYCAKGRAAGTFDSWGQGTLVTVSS
VL: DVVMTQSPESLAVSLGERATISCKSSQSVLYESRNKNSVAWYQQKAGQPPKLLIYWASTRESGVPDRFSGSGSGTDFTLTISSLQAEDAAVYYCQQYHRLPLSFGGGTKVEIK

Variants are written as CDR1, CDR2 and CDR3 of the light chain (limits as in the source). Parent: KSSQSVLYESRNKNSVA, WASTRES, QQYHRLPLS. This list holds designs with more than six substitutions. Affinities are written as log10 Kd with Kd in nM; a lower number is a better binder. The mean shown is taken over the replicates in which the pair was detected. "not detected" marks a missing value. The strain was present, yet no cells mated with the target were sequenced in any replicate, which points to weak or no binding. Background: pairings of all light chain designs with three empty control strains gave a value in 4% of cases (median 2.64, 5th percentile 1.59). Values in that range, when seen in few replicates, are hard to tell from nonspecific mating. Also given: how often the same scFv was detected with the empty control strains. The parent sequence was in this pool as ten entries: three were never detected, three once, and four in most replicates, with averages from 0.34 to 2.37. Values of this round are not directly comparable with the first-round values of the same sequences. In the paper, a design with two or fewer of six values counts as a poor binder.

CDR-L1,CDR-L2,CDR-L3,group,"log10 Kd (nM), mean",detected,control signals
TISGVMMQLSHSKNNVA,EVSTRLD,QQYVRLPLE,En_Gen,0.42,6/6,0/18
KLYFNVGTMSINKQSIA,DMERRED,QQYHRLPLS,En_HC,-0.08,6/6,2/18
TISEVMETLTRHGNNVA,DLAERED,QQYFRLPLS,En_Gen,0.71,6/6,0/18
MIEEDNAGEQKNSSNIA,SVDQKED,QQYQRLPLM,En_Gibbs,1.09,6/6,2/18
MISDTVMQGSYSRNSVA,QESTRAE,QQYHHLPLS,En_HC,0.38,6/6,0/18
KVSEFMRGLMMRKDSIA,DNQTRES,QQYDRLPLS,En_Gen,1.03,6/6,0/18
KSSQSVPQESRNTNSVA,WADRRES,CQYHRLILS,Ctrl,not detected,0/6,0/18
IVSQLMLWGMHHKNSIA,EASTRLN,QQYERLPLF,En_Gen,not detected,0/6,0/18
MLEIIPNGYMKMRSNVA,DGSLVRM,QQYARLPLM,En_Gibbs,not detected,0/6,0/18
KLQQSWMQQWRNKNSVA,HASTRLS,QQYHRLPLS,GP_Gibbs,1.79,6/6,1/18
KLYMSTMLESHNKNSIA,DLSTRGN,QQYHRLPLS,En_HC,0.14,6/6,0/18
KITATMRFEQKIKNNIA,EVTTRSK,QQYYRLPLS,En_Gen,1.04,6/6,0/18
KLLQTVMNGRYKRNNVA,HMTMRED,QQYFRLPLS,En_HC,2.95,2/6,0/18
AMQMERLGQKQYQNNIA,NQDIRTA,QQYYMLPLV,En_Gibbs,0.10,6/6,0/18
KIGATLNTLAHKQNNVA,DLVEREN,QQYFRLPLS,En_Gen,0.33,6/6,0/18
KISGQYRYESLSKNSIA,EAQTRLK,QQYHRLPLS,En_HC,0.37,6/6,3/18
QIQSESEHPYKDKNSMA,DSECKAA,QQYFRLPLM,En_Gibbs,0.56,6/6,0/18
TISQMTSLFSQSINNVA,EVSMREL,QQYDRLPLA,En_Gen,1.05,6/6,1/18
RLAMGHDNYMHEGNHVA,EVSCKAT,QQYAHLPLV,En_Gibbs,2.01,1/6,2/18
MLLQATMYGERNRNSVA,HAATRED,QQYHRLPLI,En_HC,1.20,6/6,0/18
TIGQMFNGESRARNSVA,QASTRES,QSYDRLPLS,En_HC,0.65,6/6,2/18
MISQIYNMGQFAINSVA,QASERSN,QQYDRLPLI,En_Gen,1.54,6/6,2/18
TLYGLTNSMSKNKDSVA,EMSTREA,QQYDRLPLV,En_Gen,0.73,6/6,1/18
KISGLYNFAQTNKNSIA,EMTTRES,QHYHRLPLS,En_HC,0.49,6/6,0/18
RLTNEFFKEMERKNSVA,HADQRCM,QQYFRLPLI,En_Gibbs,1.00,6/6,0/18
KLSQFYRMESRNKNSVA,DNSTREK,QQYDRLPLS,En_HC,2.93,1/6,1/18
KIHMGWEMGSRTNDNIA,EANLRFS,QQYNRLPLF,En_Gibbs,0.53,6/6,0/18
IVSQMMLWGLHAKNSIA,EAVTRYN,QQYDRLPLF,En_Gen,1.87,5/6,0/18
VMQIQSDGMLNTKHNVA,GVDERLE,QQYFRLPLL,En_Gibbs,-0.08,6/6,5/18
MMSQVTGSGTRHRNNVA,QTSMRET,QQYDRLPLI,En_Gen,1.11,6/6,1/18
KISQMHRVGSTHGNSIA,EEATRAK,QQYHRLPLF,En_Gen,2.13,6/6,2/18
MMSQVTGSGTRHRNNVA,QTSTREP,QQYDRLPLM,En_Gen,1.38,6/6,0/18
MFPQEVMYEQHFRNNVA,QTSTREP,QQYDMLPLS,En_HC,0.82,6/6,0/18
KLTMMYQHTSMNKNNIA,ERSTREE,QQYHHLPLS,En_HC,1.03,6/6,1/18
KLSESVLYQSQNWNNVA,DASTRMS,QQYHRLPLS,GP_Gibbs,-0.57,6/6,0/18
KQSWSEDYGSRNKNSVA,DASQRES,QQYHRLPLS,GP_Gibbs,-0.45,6/6,0/18
TISQLMNMGQFAINSVA,QASIRNM,QQYDRLPLA,En_Gen,1.60,6/6,0/18
KLSESVLYQSQNWNQVA,EASTRMS,QQYHRLPLS,GP_Gibbs,0.00,6/6,1/18
NLNDGPMEQQIHMDAIA,QEAIRNA,QQYARLPLS,En_Gibbs,0.93,6/6,0/18
KLGSATRFESSNKASIA,DNSTREK,QQYHRLPLS,En_HC,0.71,6/6,1/18
KLSQSDGGLQRNKNSVA,EASTREM,QQYHRLPLS,GP_Gibbs,0.31,6/6,0/18
KQSQAVPYEQRNKNNVA,DGSTRES,QQYHRLPLS,GP_Gibbs,-0.21,6/6,0/18
MMSQLTYTGSRARNAVA,QAETRVN,QQYHHLPLI,En_HC,0.82,6/6,2/18
KAQQSQLYESRNQNSVA,SASQRLS,QQYHRLPLS,GP_Gibbs,-0.11,6/6,0/18
HVHMEMAEEKNIRYNIA,DASMRYA,QQYVRLPLG,En_Gibbs,0.33,6/6,0/18
KLMQSALLESRNFNNVA,QASQREL,QDYHRLPLS,GP_Gibbs,-0.04,6/6,3/18
KLDMNELHQSQNKNCVA,DSAQKCS,QQYSRLPLS,En_Gibbs,0.24,6/6,3/18
NLYQSMNFLGRVMNSIA,DASTLPD,QQYHRLPLS,En_HC,0.26,6/6,0/18
KLGMWMYGPTEAKYAVA,EDEMRVH,QQYDRLPLI,En_Gibbs,not detected,0/6,0/18
QLSSITGHMQMIKNNVA,EMETREN,QQYERLPLS,En_Gen,0.36,6/6,2/18
KYPQSELYESRNQNSVA,MASQREE,QQYHRLPLS,GP_Gibbs,-0.01,6/6,0/18
KIGLTLNTLMHQKNNVA,DLVEREN,QQYFRLPLS,En_Gen,0.61,6/6,2/18
KSSGSVLYEDKNVNSVA,HASQRLS,QQYHRLPLS,GP_Gibbs,0.93,6/6,0/18
KLSMSMLMESRHKNSVA,ENSTREA,QHYHRLPLS,En_HC,2.33,3/6,2/18
HMSMLTLGGLKNRNSVA,QMTTREN,QQYDRLPLS,En_Gen,0.89,6/6,1/18
SIQNLGMVPSVWKNSIA,DVTIVEE,QQYSRLPLL,En_Gibbs,0.64,6/6,0/18
KLYMATGYESRNADSIA,DNSTRGR,QQYHRLPLS,En_HC,0.97,6/6,4/18

For reference, 9 entries of the list once more:

CDR-L1,CDR-L2,CDR-L3,group,"log10 Kd (nM), mean",detected,control signals
KLYMATGYESRNADSIA,DNSTRGR,QQYHRLPLS,En_HC,0.97,6/6,4/18
TIGQMFNGESRARNSVA,QASTRES,QSYDRLPLS,En_HC,0.65,6/6,2/18
MISDTVMQGSYSRNSVA,QESTRAE,QQYHHLPLS,En_HC,0.38,6/6,0/18
KLQQSWMQQWRNKNSVA,HASTRLS,QQYHRLPLS,GP_Gibbs,1.79,6/6,1/18
AMQMERLGQKQYQNNIA,NQDIRTA,QQYYMLPLV,En_Gibbs,0.10,6/6,0/18
KLSQFYRMESRNKNSVA,DNSTREK,QQYDRLPLS,En_HC,2.93,1/6,1/18
QLSSITGHMQMIKNNVA,EMETREN,QQYERLPLS,En_Gen,0.36,6/6,2/18
MLLQATMYGERNRNSVA,HAATRED,QQYHRLPLI,En_HC,1.20,6/6,0/18
KLSQSDGGLQRNKNSVA,EASTREM,QQYHRLPLS,GP_Gibbs,0.31,6/6,0/18